Test results: publication PMC6007947, “Sensitivity of pretargeted immunoPET using ^68Ga-peptide to detect colonic carcinoma liver metastases in a murine xenograft model: Comparison with ^18FDG PET-CT” (Oncotarget, 2018)

System: hepatic LS174T metastases
Design: species or system nude mice
Details: mouse, in vivo

- Biodistribution uptake, Blood: 1.21 ± 0,20 %ID
- Biodistribution uptake, Bone: 3.85 ± 0.40 %ID
- Biodistribution uptake, Heart: 61.57 ± 10.53 %ID
- Biodistribution uptake, Intestine: 4.99 ± 0.52 %ID
- Biodistribution uptake, Kidney: 6.57 ± 0.77 %ID
- Biodistribution uptake, Liver: 2.26 ± 0.33 %ID
- Biodistribution uptake, Lung: 5.77 ± 0.50 %ID
- Biodistribution uptake, Muscle: 5.93 ± 1.78 %ID
- Biodistribution uptake, Skin: 3.08 ± 0.17 %ID
- Biodistribution uptake, Spleen: 4.52 ± 0.37 %ID
- Biodistribution uptake, Stomach: 3.43 ± 0.45 %ID
- Biodistribution uptake, Tumor (iv): 7.61 ± 1.53 (n=10) %ID
SMILES: OC[C@H]1OC(O)[C@H](F)[C@@H](O)[C@@H]1O (stereo partly drawn) [^18FDG-PET, Fluorine-18 fluorodeoxyglucose]
